Reference: PubChem BioAssay AID651995 (Sanford-Burnham Center for Chemical Genomics, 2013)
The list shows a part of the results, in another mix than the full data. Calls of active or inactive are those of the source.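 Rule for the calls: active = mean inhibition above about 25% (limit read from the data); inactive = the rest.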

experiment: Wnt3a reporter signal inhibition, confirmation, counter-screen for Gli-SUFU antagonist project, Wnt-LIGHT cells, luminescence, single concentration (AID 651995); settings: Wnt3a-driven luciferase reporter, at 6.25 µM, hits give high values

Q: With `CN1CCCC(OC(=O)C(c2ccccc2)c2ccccc2)C1` (stereo not drawn) as the compound, how does the inhibition read?
A: inactive: -43.5%

Q: Which inhibition does the source give for `N#C/C(=C\c1ccc(N(CCBr)CCBr)cc1)C(N)=O` here?
A: inactive: 24.6%

Q: With `CC(=O)NC(SC(=S)N(C)C)C(Cl)(Cl)Cl` (stereo not drawn) as the compound, how does the inhibition read?
A: inactive: -8.55%
